Measured values published in patent US6953675.

Key:
[1] = biological target: WN; test: competitive binding assay, from ID50 against unmodified hLL2 F(ab')2
[2] = biological target: WN; test: competitive binding assay, printed as ID50; target taken as WN from paragraph 68

Immunoreactivity, % of hLL2 [1]: 100% | IC50 [2]: 0.384 µg/mL
Substance: hLL2 F(ab')2, non-conjugated (antibody)
